The subject of this assay is collagen induced aggregation of human prp. Put plainly: Inhibition of platelet aggregation in vitro, collagen induced (turbidometric). In kind it is cell-based. The following applies: read-out: I.C.50 (μM) vs COLLAGEN
The protocol:
(a) Platelet rich plasma (prp) preparation
Human venous blood was […] from healthy male donors, who had denied any medication during the previous 14 days. […] The citrated blood was centrifuged at 160 g for 10 mins. at 22° C. to obtain platelet rich plasma (prp). The platelets were then counted on a Coulter counter, and the platelet count was adjusted to 200,000 per μl with plasma.
Inhibition of Platelet Aggregation in vitro

We go through 1 compound from US4636518A, “Imidazole derivatives and pharmaceutical compositions” (G. D. Searle & Co., priority 1981, dated 1987).

Molecules are shown by their SMILES.

With `CC(=O)Oc1ccccc1C(=O)O` [aspirin, reference compound], the IC50 was 106 µM.
